Only a part is listed here, and it is no random draw. Activity calls are given as the source filed them. No stated cut-off is given here; in the data, active means inhibition above about 60%; inconclusive means no clear call, values can overlap the other calls; inactive means below that.
Assay: MLPCN primary screen, SNCA 5' untranslated region (AID 1813);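 further: H4 neuroglioblastoma cells stably carrying SNCA 5'UTR luciferase fusion; 0% = DMSO wells and 100% = positive control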
Details: alpha-synuclein 5'UTR reporter, inhibitor activity; hits give high values; tested at 7.5 µM

SMILES | inhibition
COc1cc(C2NCCC3(OCCO3)C2(C)C)cc(OC)c1OC (configuration not stated) | inactive: 3.21%
CCOP(=O)(Nc1cccc2ccccc12)OCC | inactive: 5.21%
Cc1ccc(NCCc2c([N+](=O)[O-])cc([N+](=O)[O-])cc2[N+](=O)[O-])cc1 | inactive: -147%
Nc1cccc2c([As](=O)(O)O)cccc12 | inactive: 32.6%
CCCOP(=S)(Nc1nc(N)cc(=O)[nH]1)OCCC | inactive: -16.7%
O=[As](O)(c1cccc(O)c1)c1cccc(O)c1 | inactive: -14.2%
Cc1cccc(OCC(=O)OC2CN3CCC2CC3)c1 (configuration not stated) | inactive: -8.49%
O=C(OC1CN2CCC1CC2)c1ccc(Cl)cc1 (configuration not stated) | inactive: 11.5%
COc1cc(C(=O)NCC2(N3CCOCC3)CCCCC2)cc(Cl)c1OC(C)C | inactive: -7.66%
O=[As](O)(O)c1cccnc1 | inactive: 5.02%
CS(=O)(=O)c1ccc(Cl)c(NC(=O)COC(=O)C(O)(c2ccccc2)c2ccccc2)c1 | inactive: 12.4%
N#CCCN(C(=O)COC(=O)C(O)(c1ccccc1)c1ccccc1)c1ccc(F)cc1 | inactive: 12.1%
CCOP1(=S)c2c(C)nn(CCC#N)c2N=C(c2ccc(F)cc2)N1C (configuration not stated) | inactive: -4.85%
CN(C(=O)Cc1ccccc1)[C@@H]1CC[C@]2(CCCO2)C[C@H]1N1CCCC1 | inactive: 5.96%
CN(C)C(=O)c1cc([N+](=O)[O-])cc2c1-c1c(cc([N+](=O)[O-])cc1[N+](=O)[O-])C2=O | inactive: -62.5%
O=[N+]([O-])c1ccc2c(c1)nnn2O | inactive: -17.2%
CN(C(=O)Cc1ccc(Cl)c(Cl)c1)[C@H]1CC[C@@]2(CCCO2)C[C@@H]1N1CCCC1 | inactive: -16.8%
NC(=O)Nc1ccc([As](=O)(O)O)cc1 | inactive: 10.3%
O=C(O)COc1ccc([As](=O)(O)O)cc1[N+](=O)[O-] | inactive: -4.69%
Nc1ccccc1[As](=O)(O)c1ccccc1 | inactive: -5.21%
CCOP1(=S)c2c(C)nn(CCC#N)c2N=C(c2ccccc2F)N1C (configuration not stated) | inactive: 4.46%
O=P(Nc1nccs1)(c1ccccc1)c1nc2ccccc2s1 (configuration not stated) | inactive: -58%
O=P(Nc1nccs1)(Oc1ccccc1)Oc1ccccc1 | inactive: -19.8%
CS(=O)(=O)c1cc([N+](=O)[O-])c2no[n+]([O-])c2c1 | inactive: 1.3%
Nc1cccc([As](=O)(O)c2ccccc2)c1 | inactive: -1.54%
O=P1(Nc2ccc(Br)cn2)COc2ccccc2OC1 | inactive: 14.9%

SMILES | inhibition
Cc1ccc(OCC(=O)OC2CN3CCC2CC3)cc1 (configuration not stated) | inactive: 3.32%
O=[As](O)(c1cccs1)c1cccs1 | inactive: 5.02%
O=P1(Nc2ncccn2)COc2ccccc2OC1 | inactive: -6.88%
CN(C)C1(CNC(=O)c2ccc(S(C)(=O)=O)cc2)CCCCC1 | inactive: 21.5%
O=C(/C=C/c1ccccc1)OC1CN2CCC1CC2 (configuration not stated) | inactive: -8.04%
Cc1nn(-c2ccccc2)c2c1P(=O)(N1CCOCC1)N(C)C(c1ccccc1)=N2 (configuration not stated) | inactive: -4.44%
Cc1ccc(C(=O)OC2CN3CCC2CC3)cc1 (configuration not stated) | inactive: 0.707%
CC1CCC(C(C)C)C(OP(=O)(Nc2ccccn2)c2ccccc2)C1 (configuration not stated) | inactive: 11.1%
CN(C(=O)Cc1ccc(Cl)c(Cl)c1)[C@@H]1CCCC[C@H]1N1CCCC1 | inactive: -10.2%
CC(C)/C=N\N=C(\N)N[N+](=O)[O-] | inactive: 8.17%
O=[As](O)(c1ccccc1Br)c1ccccc1Br | inactive: -6.05%
CC1(CBr)Cn2c(nc3ccccc3c2=O)S1 (configuration not stated) | inactive: 7.12%
COc1ccccc1CNC(=O)COC(=O)C(O)(c1ccccc1)c1ccccc1 | inactive: 3.13%
Clc1n[nH]nc1-c1nn[nH][15n]1 | inactive: -6.28%
CC(C)(C)C(=O)NC(Sc1ncccn1)C(Cl)(Cl)Cl (configuration not stated) | inactive: -13.2%
CCC1=CC2Cc3nc4ccc(Cl)cc4c(N)c3C(C1)C2 (configuration not stated) | inactive: -17.3%
O=P1(Nc2ccccn2)COc2ccccc2OC1 | inactive: -0.496%
CCOP(=O)(NC(=NC(C)c1ccccc1)NC(C)c1ccccc1)OCC (configuration not stated) | inactive: 4.18%
CN(CCCl)Cc1cc(Cl)c(NC2=NCCN2)c(Cl)c1 | inactive: -3.92%
CCOP(=O)(Nc1ccc(C)cn1)OCC | inactive: -5.58%
CCC(C)N(CC(C)C)C(=S)SC(NC(C)=O)C(Cl)(Cl)Cl (configuration not stated) | inactive: 11.9%
O=C(OC1CN2CCC1CC2)c1cccc([N+](=O)[O-])c1 (configuration not stated) | inactive: 0.364%
CCOC(=O)c1ccc(NC(=O)C(C)(CCl)SC)cc1 (configuration not stated) | inactive: -60.5%
O=C(COc1ccccc1)OC1CN2CCC1CC2 (configuration not stated) | inactive: 6.5%
O=C(Nc1ccncc1[N+](=O)[O-])c1ccc([N+](=O)[O-])cc1[N+](=O)[O-] | inactive: -23.9%
COP1(=S)c2c(C)nn(CCC#N)c2N=C(c2ccc(F)cc2)N1C (configuration not stated) | inactive: -6.65%

SMILES | inhibition
Cc1cc(SC(NC=O)C(Cl)(Cl)Cl)ncn1 (configuration not stated) | inactive: 15.8%
O=P(Nc1ccccn1)(c1cccc2ccccc12)c1cccc2ccccc12 | inactive: 22.9%
O=[N+]([O-])c1ccc(Nc2ccc(Oc3ccc([N+](=O)[O-])cc3[N+](=O)[O-])cc2)c([N+](=O)[O-])c1 | inactive: 12.3%
CCOC(=O)Nc1cccc([As](=O)(O)O)c1 | inactive: -2.33%
CCCCOc1ccc(C(=O)NCC2(N3CCCCC3)CCCCC2)cc1OC | inactive: -0.345%
Cc1cc(SC(NC(=O)c2ccccc2)C(Cl)(Cl)Cl)nc(C(C)C)n1 (configuration not stated) | inactive: 12%
CCOC(=O)Nc1ccc([As](=O)(O)O)c(O)c1 | inactive: 19.4%
CCN(CC)C(=S)SC(NC=O)C(Cl)(Cl)Cl (configuration not stated) | inactive: 13%
CC(C)NC(=O)NP(=O)(Oc1ccccc1)Oc1ccccc1 | inactive: -15.8%
O=[N+]([O-])c1cc([N+](=O)[O-])c(-c2ccn[nH]2)s1 | inactive: -37.5%
ClCCSc1nnc(-c2cccnc2)o1 | inactive: -32%
CC(C)c1ccc(OP(=O)(Nc2ccccn2)Oc2ccccc2F)cc1 (configuration not stated) | inactive: -26%
Cc1ccc(OP(=O)(Nc2ccc([N+](=O)[O-])cn2)Oc2ccc(C)cc2)cc1 | inactive: 8.14%
Cc1ccc2nc3c(c(C)c2c1)CC(C(Cl)Cl)S3 (configuration not stated) | inactive: -46.6%
C[As](=O)(O)c1cccc(C(=O)O)c1 | inactive: -2.55%
O=[As](O)(c1ccc(O)cc1)c1ccccc1O | inactive: 11.8%
COc1ccc(N/C(=N/P(=O)(N2CCOCC2)N2CCOCC2)N2CCOCC2)cc1 | inactive: 14.9%
COc1ccc2nc(NP(=O)(c3ccccc3)c3ccccc3)sc2c1 | inactive: 19.5%
COc1cc(I)ccc1[As](=O)(O)O | inactive: -2.53%
Cc1c2c(nc3ccccc13)SC(C(Cl)Cl)C2 (configuration not stated) | inactive: -6.58%
O=C(OC1CN2CCC1CC2)C12CC3CC(CC(C3)C1)C2 (configuration not stated) | inactive: -20.3%
Cc1cc(=O)[nH]c(N[N+](=O)[O-])n1 | inactive: -0.927%
Oc1ccccc1CNc1ccccn1 | inactive: -36.6%
Cc1c2non([O-])c-2c(C)[n+](=O)[n+]1[O-] | inactive: 10.5%
O=C(NC(Sc1ccncn1)C(Cl)(Cl)Cl)c1ccccc1 (configuration not stated) | inactive: -25.8%
CC(C)CC(=O)NC(Sc1ccc(Cl)cc1)C(Cl)(Cl)Cl (configuration not stated) | inactive: -13.5%

SMILES | inhibition
Nc1cc(N)c2nonc2c1[N+](=O)[O-] | inactive: 0.878%
Clc1ccc(Cl)c(NC2=NCC(CBr)S2)c1 (configuration not stated) | inactive: 3.82%
CN1CCCC(OC(=O)C(c2ccccc2)c2ccccc2)C1 (configuration not stated) | inactive: 7.8%
COc1ccccc1OP(=O)(Nc1ccc(C)cn1)Oc1ccccc1OC | inactive: -6.67%
Cc1ccc(OP(=O)(Nc2nccs2)Oc2ccc(C)cc2)cc1 | inactive: 23.3%
Cc1ccc(N/C(=N/P(=O)(N2CCOCC2)N2CCOCC2)N2CCOCC2)cc1 | inactive: 29.8%
NC(=O)c1cc([N+](=O)[O-])cc([N+](=O)[O-])c1N | inactive: 13%
Nc1cccc2ccc([As](=O)(O)O)cc12 | inactive: 3.56%
CCN(N=Nc1nonc1N)c1nonc1N | inactive: 22.5%
O=[N+]([O-])c1cc([N+](=O)[O-])c(CCN2CCOCC2)c([N+](=O)[O-])c1 | inactive: -8.38%
CCOP(=O)(Nc1ccccc1)OCC | inactive: -26%
Cc1cc(SC(NC(=O)c2ccc(F)cc2)C(Cl)(Cl)Cl)ncn1 (configuration not stated) | inactive: 23.9%
CN(C(=O)Cc1ccc(Cl)c(Cl)c1)[C@H]1CCCC[C@@H]1N1CCCC1 | inactive: 0%
Cc1ccc(NP(=O)(Oc2ccccc2F)Oc2ccccc2F)nc1 | inactive: 4.32%
O=P(Nc1nc2ccc(Cl)cc2s1)(c1ccccc1)c1ccccc1 | inactive: 26%
O=C(O)c1ccccc1[As](=O)(O)O | inactive: 1.85%
CC(=O)Nc1ccc([As](=O)(O)O)cc1 | inactive: 7.22%
O=C(O)CNc1ccc([As](=O)(O)O)cc1 | inactive: 5.88%
O=[N+]([O-])c1cccc(NC2=NCC(CBr)S2)c1 (configuration not stated) | inactive: 13.8%
O=[N+]([O-])c1ncn(CCn2ncnc2[N+](=O)[O-])n1 | inactive: 9.13%
CC(C)(C)C(=O)NC(Sc1ccncn1)C(Cl)(Cl)Cl (configuration not stated) | inactive: -6.83%
O=C(Nc1cc([As](=O)(O)O)ccc1O)c1ccccc1 | inactive: -2.67%
CC1CCN(C(=O)Oc2c(Cl)cc(Cl)c3cccnc23)CC1 | inactive: -24.6%
CC(C)=N/N=C(\N)N[N+](=O)[O-] | inactive: 19.1%

Source: PubChem BioAssay AID1813 (Broad Institute, 2009)
